1 molecule from article PMC11477289, “Low-Basicity 5-HT6 Receptor Ligands from the Group of Cyclic Arylguanidine Derivatives and Their Antiproliferative Activity Evaluation” (International Journal of Molecular Sciences, 2024) can be followed below.

Sequences of proteins named here, by UniProt entry; tags and fusion partners are left off. Residues count along the entry.
UniProt P02768, 25-609: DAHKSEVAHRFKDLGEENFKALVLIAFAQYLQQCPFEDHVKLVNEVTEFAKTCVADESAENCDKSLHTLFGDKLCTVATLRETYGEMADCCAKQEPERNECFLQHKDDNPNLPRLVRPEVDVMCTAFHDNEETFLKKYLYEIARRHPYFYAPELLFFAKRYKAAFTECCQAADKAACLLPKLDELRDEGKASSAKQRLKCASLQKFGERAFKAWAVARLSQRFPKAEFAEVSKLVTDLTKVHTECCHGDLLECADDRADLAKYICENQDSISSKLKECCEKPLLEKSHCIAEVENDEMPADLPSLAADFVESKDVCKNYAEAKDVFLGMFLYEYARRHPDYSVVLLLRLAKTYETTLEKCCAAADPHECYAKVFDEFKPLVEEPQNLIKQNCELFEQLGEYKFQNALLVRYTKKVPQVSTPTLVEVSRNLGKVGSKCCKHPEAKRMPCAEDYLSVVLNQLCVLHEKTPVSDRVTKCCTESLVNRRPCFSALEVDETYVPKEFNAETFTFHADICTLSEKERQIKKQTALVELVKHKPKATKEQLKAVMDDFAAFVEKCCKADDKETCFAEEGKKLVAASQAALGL

Molecules are shown by their SMILES.

The series concerns the target human serum albumin (HSA) (Homo sapiens, UniProt P02768). Briefly: Binding to HSA, Chiralpak HSA column.

As for `COc1ccc(C(CN(C)C)C2(O)CCCCC2)cc1` (stereo not shown) [Venlafaxine, reference compound], the “%HSA” value is 22.4%.
